Molecular target: Delta-type opioid receptor (Homo sapiens) (UniProt P41143)
Assay: [35S]GTP-gamma-S, induced maximal stimulation ( E max ) Delta opioid receptor in guinea pig caudate membranes blocked with 20 nM NTI
Details: Cavia porcellus

Sequences of proteins named here, by UniProt entry; tags and fusion partners are left off.
UniProt P41143, whole entry, looked up: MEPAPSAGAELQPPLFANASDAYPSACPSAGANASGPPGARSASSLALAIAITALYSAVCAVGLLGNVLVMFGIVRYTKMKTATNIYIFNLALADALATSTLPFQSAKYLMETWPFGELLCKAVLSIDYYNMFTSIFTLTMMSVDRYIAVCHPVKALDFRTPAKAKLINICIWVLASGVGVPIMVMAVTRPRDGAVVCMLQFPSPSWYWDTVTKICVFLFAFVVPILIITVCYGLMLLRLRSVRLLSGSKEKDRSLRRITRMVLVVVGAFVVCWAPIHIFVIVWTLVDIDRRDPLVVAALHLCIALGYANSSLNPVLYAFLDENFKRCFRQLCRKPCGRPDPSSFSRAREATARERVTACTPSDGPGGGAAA

CN(C(=O)Cc1ccccc1)[C@H]1CC[C@@]2(CCCO2)C[C@@H]1N1CCCC1
Emax: 178

— ChEMBL document CHEMBL1131860
